Earlier results on one compound are cited in patent US20230201290A1, “TGF-BETA INHIBITION, AGENTS AND COMPOSITION THEREFOR” (GMP BIOTECHNOLOGY LIMITED, priority 2020, published 2023).

One data set deals with falciparum malaria. Conditions: 1975, 3-day regimens: artemisinin tablets 2.5 g, chloroquine 1.5 g base; cited from earlier work.
A further data set relates to vivax malaria. Conditions: 1975: artemisinin tablets total 3 g; chloroquine total 1.5 g base; cited from earlier work.

`CCN(CC)CCCC(C)Nc1ccnc2cc(Cl)ccc12` (centres unmarked) [chloroquine]: the “Average asexual parasite clearance time” value in the data set with falciparum malaria was 65.7 ± 29.9 h. Further, the parasite clearance time with vivax malaria was 55.9 ± 16.6 h.
